Measured values taken from paper PMC12866986 (European journal of medicinal chemistry, 2026).
“And” between values parts separate entries of the source, which are not always exact repeats. Equal entries are not always repeated. Where two headings read alike, the source gives them in different places.

Amino acid sequences for entries named in this document (tags omitted).
UniProt Q05397, whole entry: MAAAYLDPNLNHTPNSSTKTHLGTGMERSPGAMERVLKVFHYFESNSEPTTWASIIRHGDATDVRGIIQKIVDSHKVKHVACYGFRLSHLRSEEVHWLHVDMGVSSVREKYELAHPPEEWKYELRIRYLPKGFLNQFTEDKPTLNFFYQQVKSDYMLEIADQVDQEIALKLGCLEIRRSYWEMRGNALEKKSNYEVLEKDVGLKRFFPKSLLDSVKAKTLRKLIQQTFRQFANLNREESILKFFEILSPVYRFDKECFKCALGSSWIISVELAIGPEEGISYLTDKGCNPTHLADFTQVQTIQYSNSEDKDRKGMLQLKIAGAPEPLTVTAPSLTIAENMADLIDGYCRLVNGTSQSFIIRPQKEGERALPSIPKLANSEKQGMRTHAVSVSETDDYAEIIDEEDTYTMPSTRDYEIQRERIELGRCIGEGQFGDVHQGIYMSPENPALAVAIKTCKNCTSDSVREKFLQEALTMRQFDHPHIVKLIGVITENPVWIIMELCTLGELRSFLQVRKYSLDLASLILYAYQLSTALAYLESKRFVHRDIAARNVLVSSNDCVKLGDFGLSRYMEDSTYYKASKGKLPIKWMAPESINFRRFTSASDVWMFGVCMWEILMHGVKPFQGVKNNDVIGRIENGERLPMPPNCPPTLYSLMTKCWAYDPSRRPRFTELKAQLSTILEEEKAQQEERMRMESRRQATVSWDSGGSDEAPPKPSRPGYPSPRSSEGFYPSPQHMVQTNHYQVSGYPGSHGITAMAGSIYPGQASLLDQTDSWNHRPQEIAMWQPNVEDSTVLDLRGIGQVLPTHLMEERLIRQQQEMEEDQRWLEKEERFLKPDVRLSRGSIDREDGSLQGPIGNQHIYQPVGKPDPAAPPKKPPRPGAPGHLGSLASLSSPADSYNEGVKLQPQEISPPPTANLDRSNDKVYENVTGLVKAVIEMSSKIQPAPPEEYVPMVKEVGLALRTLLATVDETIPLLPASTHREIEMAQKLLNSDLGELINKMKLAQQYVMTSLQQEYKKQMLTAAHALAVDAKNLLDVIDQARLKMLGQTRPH

Columns and labels:
FAK [1] = biological target: T1, FAK (Homo sapiens, UniProt Q05397); conditions: 1 h, relative to vehicle control, n = 8 measurements
FAK [2] = biological target: T1, FAK; conditions: at 100 pM; cited from earlier work

Row | Structure (SMILES) | FAK-Tyr-397/FAK fold change, ± SEM (FAK [1]; 100 nM) | FAK activation in Caco-2 cells (FAK [2]) | FAK-Tyr-397/FAK fold change, ± SEM (FAK [1]; 10 nM)
1 | CN(C)C(CNC(=O)Nc1cc(C(F)(F)F)ccc1N1CCOCC1)c1ccncc1.O=P(O)(O)O (stereo not drawn) [Compound 5aPhosphate, 1-(2-(Dimethylamino)-2-(pyridin-4-yl)ethyl)-3-(2-morpholino-5-(trifluoromethyl)phenyl)urea phosphate salt] | 0.96±0.07 fold change | – | –
2 | CN(C)C(CNC(=O)Nc1cc(C(F)(F)F)ccc1N1CCOCC1)c1ccncc1 (stereo not drawn) [Compound 5a, 1-(2-(dimethylamino)-2-(pyridin-4-yl)ethyl)-3-(2-morpholino-5-(trifluoromethyl)phenyl)urea] | 0.82±0.06 fold change | activates FAK | –
3 | CN(C)C(CNC(=O)Nc1cc(C(F)(F)F)ccc1N1CCOCC1)c1ccncc1.Cl (stereo not drawn) [Compound 5aHCl, 1-(2-(dimethylamino)-2-(pyridin-4-yl)ethyl)-3-(2-morpholino-5-(trifluoromethyl)phenyl)urea hydrochloric salt] | 1.25±0.08 fold change and 1.25±0.08^a; 1.25±0.08^b fold change | – | 1.25 fold change and 1.25±0.08^a; 1.25±0.08^b fold change
4 | CC(=O)O.CN(C)C(CNC(=O)Nc1cc(C(F)(F)F)ccc1N1CCOCC1)c1ccncc1 (stereo not drawn) [Compound 5aAcetate, 1-(2-(Dimethylamino)-2-(pyridin-4-yl)ethyl)-3-(2-morpholino-5-(trifluoromethyl)phenyl)urea acetate salt] | 1.18±0.05 fold change | – | –
